{
  "sequences": {"note": "By UniProt entry, the sequences of proteins in these tests, tags left out. Chains listed by the source or under a name are the forms on record and can include a tag or linker.", "UniProt Q01973, other isoform, or with tags, fused parts or gaps limits assumed": "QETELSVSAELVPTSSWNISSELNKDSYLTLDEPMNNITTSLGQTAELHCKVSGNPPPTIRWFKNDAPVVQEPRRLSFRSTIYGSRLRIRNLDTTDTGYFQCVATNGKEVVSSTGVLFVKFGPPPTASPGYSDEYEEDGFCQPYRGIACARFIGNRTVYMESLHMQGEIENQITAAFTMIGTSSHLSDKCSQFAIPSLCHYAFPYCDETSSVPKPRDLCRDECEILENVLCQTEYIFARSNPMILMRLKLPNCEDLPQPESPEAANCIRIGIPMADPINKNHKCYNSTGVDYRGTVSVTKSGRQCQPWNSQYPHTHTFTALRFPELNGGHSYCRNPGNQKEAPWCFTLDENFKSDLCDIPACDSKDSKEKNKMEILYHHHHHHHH"},
  "source": "patent CN116333122A",
  "about": "(SIGE SUZHOU BIOTECHNOLOGY CO LTD, dated 2023)",
  "key": {"ROR1-HIS [1]": {"biological_target": "T1, ROR1-HIS (Homo sapiens (Human), UniProt Q01973 30-406)", "T1 construct": "His-tagged ROR1 fusion protein made in 293F cells and purified on a nickel column; also called ROR1-HIS抗原; ROR1 HIS蛋白", "experiment": "BLI, ForteBio Octet"}, "ROR1-HIS [2]": {"biological_target": "T1, ROR1-HIS", "experiment": "ELISA, ROR1-HIS coated at 1 μg/ml, 100 μl/well"}},
  "data": [
    {"binder": "6G3重组嵌合抗体 (antibody, V domains shown) VH: EVKLVESGGGLVKPGGSLKLSCAASGFTFSSYALSWVRQTPEKRLEWVASINRGVTTYYPDSVKGRFTISRDNARNILYLQMSSLRSEDTAMYYCARYDGNYEGMDYWGQGTSVTVSS VL: DIKMTQSPSSMFASLGERVTITCKASQDINSYLSWFQQKPGKSPKTLIYRANRLIDGVPSRFSGSGSGQDYSLTISSLEYEDMGIYYCLQYDEFPYTFGGGTKLEIK", "values": [
      {"measurement": "Kd", "setting": "ROR1-HIS [1]", "value": 10.8, "unit": "nM"},
      {"measurement": "koff", "setting": "ROR1-HIS [1]", "value": 0.000765, "unit": "s⁻¹"},
      {"measurement": "kon", "setting": "ROR1-HIS [1]", "value": 71100, "unit": "M⁻¹ s⁻¹"},
      {"measurement": "EC50", "setting": "ROR1-HIS [2]", "value": 12.6, "unit": "ng/mL"}
    ]},
    {"binder": "10F6重组嵌合抗体 (antibody, V domains shown) VH: EVKLQESGPSLVKPGASVKISCKTSGYTFTECAMHWVKQSHGKSLEWIGGINPNNGGTTYNQKFKDKATLTVDKSSSTAYMDLRSLTSEDSAVYYCAREAIYYDYAMDYWGQGTSVTVSS VL: not shown", "values": [
      {"measurement": "Kd", "setting": "ROR1-HIS [1]", "value": 10.2, "unit": "nM"},
      {"measurement": "koff", "setting": "ROR1-HIS [1]", "value": 0.000404, "unit": "s⁻¹"},
      {"measurement": "kon", "setting": "ROR1-HIS [1]", "value": 39500, "unit": "M⁻¹ s⁻¹"},
      {"measurement": "EC50", "setting": "ROR1-HIS [2]", "value": 1.33, "unit": "ng/mL"}
    ]}
  ]
}
